Assay: Inhibition of CaCC (unknown origin) current potentiation
Design: species or system Homo sapiens

## O=C(O)c1c(NC2=NCC(CBr)S2)sc2c1CCCC2 (stereo unspecified)
  IC50: 19 µM

Source: ChEMBL document CHEMBL5214926, “Recent contribution of medicinally active 2-aminothiophenes: A privileged scaffold for drug discovery” (Eur J Med Chem, 2022)
